Patent publication US9499482B2

By UniProt entry, the sequences of proteins in these tests, tags left out.
UniProt Q99705, whole entry E4Q/A5T: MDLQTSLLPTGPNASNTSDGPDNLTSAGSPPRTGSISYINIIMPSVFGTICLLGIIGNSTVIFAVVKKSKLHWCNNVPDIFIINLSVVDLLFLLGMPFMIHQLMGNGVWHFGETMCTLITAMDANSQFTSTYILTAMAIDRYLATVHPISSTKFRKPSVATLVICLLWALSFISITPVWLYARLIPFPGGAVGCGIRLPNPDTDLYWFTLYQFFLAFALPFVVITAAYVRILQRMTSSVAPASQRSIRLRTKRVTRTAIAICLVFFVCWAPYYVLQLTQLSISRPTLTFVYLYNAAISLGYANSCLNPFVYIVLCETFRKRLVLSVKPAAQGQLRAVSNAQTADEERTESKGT

Target: human melanin concentrating hormone receptor (MCHR1), mutated (E4Q, A5T) hMCHR1 (Homo sapiens (Human), UniProt Q99705, A5T/E4Q)
Test: Radioligand binding assay for assessment of MCHR1 activity ([125I]-MCH competition, HEK-293 membranes)
Details: membranes from HEK-293 cells expressing mutated (E4Q, A5T) hMCHR1; 0.06-0.1 nM [Phe13,[125I]Tyr19]-MCH

| SMILES | Ki [nM] |
| --- | --- |
| CCc1cc(N2CC[C@H](Oc3ccc(C4CC4)cc3)C2=O)ccc1OCCN1CC[C@H](F)C1 | 3 |
| CCc1cc(N2CC[C@H](Oc3ccc(C4CC4)cc3)C2=O)ccc1OCCN1CC[C@@H](F)C1 | 2 |
